{"source": "patent US11439670B2", "about": "“Akkermansia muciniphila EB-AMDK27 strain and use thereof” (ENTEROBIOME INC., priority 2019, dated 2022)", "test_system": "Bacteroides thetiotaomicron ATCC 29741", "test": "Antimicrobial susceptibility, MIC by broth microdilution (CLSI), QC strain", "conditions": "ATCC29741, read-out: MIC, QC ATCC 29741"}
{"smiles": "CCC[C@@H]1C[C@@H](C(=O)N[C@@H]([C@H]2O[C@H](SC)[C@H](O)[C@@H](O)[C@H]2O)[C@H](C)Cl)N(C)C1", "note": "[CLI, Clindamycin]", "values": [{"measurement": "MIC", "value": 4, "unit": "µg/mL"}]}
